The text below walks through data of patent US11168131B2, “Antibody molecule-drug conjugates and uses thereof” (priority 2015, dated 2021).

The series deals with red blood cells. Briefly: Red blood cell hemolysis assay (MLC, PLC). Format: cell-based.

On to `O=C(O)c1cn(C2CC2)c2cc(N3CCNCC3)c(F)cc2c1=O` [Ciprofloxacin, reference compound], for which the “Hemolysis PLC” value (concentration that led to 50% red blood cell lysis) is above 1 µg/mL. Further, the “Hemolysis MLC” value (concentration that led to 100% red blood cell lysis) was above 1 µg/mL. For the setting “ratio of MLC to MIC”, the MLC/MIC is listed as above 4. In addition, the PLC/MIC (ratio of PLC to MIC) is listed as above 4.
